Values quoted from earlier work in US20150307508A1, “Application of an alkaloid derived from a Chinese herbal for treatment of cancer by inhibiting cholesterol synthesis and fatty acid oxidation” (Macau University of Science and Technology, priority 2014, published 2015).

Experiments:
HCC827 = details: cited from earlier work
A549 (EGFR^Wild type) = details: cited from earlier work

For `COc1cc2ncnc(Nc3ccc(F)c(Cl)c3)c2cc1OCCCN1CCOCC1` [Gefitinib], the “Gefitinib Sensitivity” value (HCC827) is listed as “Sensitive” and the “Gefitinib Sensitivity” value (A549 (EGFR^Wild type)) is listed as “Moderately sensitive”.
